Assay results published in patent publication US7994185B2, “Benzene sulfonamide thiazole and oxazole compounds” (Glaxo Smith Kline LLC, priority 2008, dated 2011).
Read-outs that look alike come from different tables or passages of the source.

Experiments:
[1] = test system: Human melanoma cancer cells (SK-MEL-28); experiment: Cell growth inhibition assay (CellTiter-Glo), SK-MEL-28; assay type: cell-based
[2] = test system: Human colon tumor cells (Colo205); experiment: Cell growth inhibition assay (CellTiter-Glo), Colo205; assay type: cell-based
Description: Human colon tumor cells (Colo205) were cultured in RPMI (Mediatech 50-020-PB) containing 10% FBS and 1% penicillin-streptomycin.
The next day, compounds were diluted as follow: For 96-well assays, 13.5 μL of compound in DMSO were diluted using nine (9) serial 1:3 dilutions of 4.5 μL in 9 μL of DMSO. Medium (270 μL/well of RPMI with 10% FBS and 1% penicillin-streptomycin) was added to the plates. Aliquots (7 μL) were added to cells in the final assay giving a final DMSO concentration of 0.2%. For 384-well assays, 15 μL of compound in DMSO were diluted using nine (9) serial 1:3 dilutions of 5 μL in 10 μL of DMSO, followed by a further dilution of 5 μL of compound with 95 μL of medium, of which 2 μL were added to cells in the final assay giving a final DMSO concentration of 0.2%. Cells were incubated at 37° C., 5% CO2 for 3 days.
Total ATP was measured (as a surrogate estimate of cell number) using CellTiter-Glo® reagent (Promega G7571). Briefly, plates were removed from the incubator and allowed to equilibrate to room temperature for 30 minutes. […] Plates were incubated without shaking for a further 30 minutes and read on an LJL Analyst GT reader in luminometer mode with an integration time of 0.5 seconds per well. Percent inhibition of cell growth was calculated relative to DMSO vehicle-treated control wells.

- IC50 ([1]; SK-MEL-28, 72 h, Table 3a, 3 days incubation, read-out: Activity in SK-MEL-28 Tumor Cells): < 100 nM
- IC50 ([1]; SK-MEL-28, Table 3b, later runs, average for the one or more runs, categorized, read-out: IC50 for SK-MEL-28): < 100 nM
- IC50 ([2]; COLO 205, 72 h, Table 2a, 3 days incubation, read-out: Activity in Colo205 Tumor Cells): < 100 nM
- IC50 ([2]; COLO 205, Table 2b, later runs, average for the one or more runs, categorized, read-out: IC50 for Colo205): < 100 nM
SMILES: CC(C)(C)c1nc(-c2cccc(NS(=O)(=O)c3cc(F)ccc3F)c2F)c(-c2ccnc(N)n2)s1 [Example 57, N-{3-[5-(2-Amino-4-pyrimidinyl)-2-(1,1-dimethylethyl)-1,3-thiazol-4-yl]-2-fluorophenyl}-2,5-difluorobenzenesulfonamide]
